Reference: ChEMBL document CHEMBL2074145, “Active transport of fluorescent P-glycoprotein substrates: evaluation as markers and interaction with inhibitors” (Biochem Biophys Res Commun, 2001)

Amino acid sequences for entries named in this document (tags omitted).
UniProt P08183, whole entry: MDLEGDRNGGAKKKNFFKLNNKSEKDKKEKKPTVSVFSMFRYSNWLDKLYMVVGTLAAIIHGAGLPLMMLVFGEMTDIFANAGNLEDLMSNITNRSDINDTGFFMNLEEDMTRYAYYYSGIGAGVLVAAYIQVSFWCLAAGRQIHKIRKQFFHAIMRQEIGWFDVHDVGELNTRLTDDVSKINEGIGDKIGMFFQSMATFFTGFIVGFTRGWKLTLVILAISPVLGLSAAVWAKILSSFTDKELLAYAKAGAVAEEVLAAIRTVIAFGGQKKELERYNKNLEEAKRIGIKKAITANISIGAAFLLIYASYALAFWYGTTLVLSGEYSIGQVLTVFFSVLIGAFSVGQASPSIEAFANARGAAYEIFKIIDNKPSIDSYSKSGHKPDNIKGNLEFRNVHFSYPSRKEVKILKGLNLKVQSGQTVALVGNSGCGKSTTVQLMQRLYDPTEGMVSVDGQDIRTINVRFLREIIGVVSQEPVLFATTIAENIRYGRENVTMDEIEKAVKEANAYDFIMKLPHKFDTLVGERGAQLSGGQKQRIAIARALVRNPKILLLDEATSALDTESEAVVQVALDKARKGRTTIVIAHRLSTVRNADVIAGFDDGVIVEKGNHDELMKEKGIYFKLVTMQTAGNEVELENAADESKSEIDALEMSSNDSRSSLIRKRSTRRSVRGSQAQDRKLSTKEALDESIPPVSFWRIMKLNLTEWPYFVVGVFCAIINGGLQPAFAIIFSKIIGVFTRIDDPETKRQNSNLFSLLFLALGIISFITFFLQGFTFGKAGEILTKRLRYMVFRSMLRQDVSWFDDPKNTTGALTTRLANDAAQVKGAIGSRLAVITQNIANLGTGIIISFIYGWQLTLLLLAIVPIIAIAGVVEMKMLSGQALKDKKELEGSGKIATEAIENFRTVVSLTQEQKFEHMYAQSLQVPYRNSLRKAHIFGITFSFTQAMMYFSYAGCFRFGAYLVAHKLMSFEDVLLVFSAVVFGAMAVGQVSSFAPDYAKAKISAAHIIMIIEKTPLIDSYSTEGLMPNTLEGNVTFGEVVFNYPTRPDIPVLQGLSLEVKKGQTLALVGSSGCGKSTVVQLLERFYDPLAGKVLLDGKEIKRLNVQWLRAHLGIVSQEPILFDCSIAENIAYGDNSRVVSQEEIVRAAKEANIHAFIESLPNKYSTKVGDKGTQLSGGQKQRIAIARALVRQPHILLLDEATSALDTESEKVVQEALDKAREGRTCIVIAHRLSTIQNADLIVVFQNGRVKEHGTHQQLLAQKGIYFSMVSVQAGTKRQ

Tests used:
[1] = target: T1, ATP-dependent translocase ABCB1 (Homo sapiens, UniProt P08183)
[2] = target: T1, ATP-dependent translocase ABCB1; remark: listed apart in the source
[3] = target: T1, ATP-dependent translocase ABCB1; remark: listed apart in the source

SMILES	IC50 [1]	IC50 [2]	IC50 [3]
CC(=O)[C@H]1CC[C@H]2[C@@H]3CCC4=CC(=O)CC[C@]4(C)[C@H]3CC[C@]12C [PROGESTERONE]	88.1 µM	192 µM	96.2 µM
CN1CCN(CCCN2c3ccccc3Sc3ccc(C(F)(F)F)cc32)CC1 [TRIFLUOPERAZINE]	6.3 µM	10.9 µM	7.2 µM
